This assay addresses Glutamate NMDA receptor. Briefly: Antagonist activity at NMDAR in embryonic cultures of rat cortical neuron assessed as inhibition of NMDA-induced calcium influx preincubated for 10 mins followed by NMDA addition by Fluo-4/AM dye based fluorescence assay. The format is tissue-based.

A word on the IC50: it is the point on the concentration scale where inhibition reaches its midpoint. Regarding `CC12CC3CC(C)(C1)CC(N)(C3)C2` [MEMANTINE], the IC50 worked out at 30 µM.

The record behind these values is ChEMBL document CHEMBL4680250, “Identification of tetracyclic lactams as NMDA receptor antagonists with potential application in neurological disorders” (Eur J Med Chem, 2020).
